In patent US9932354B2, “Imidazo-oxadiazole and imidazo-thiadiazole derivatives” (Ares Trading S.A., priority 2012, dated 2018):

System: Amyloid-β peptide release (AβTotal), HEK cells overexpressing APP (HEK-APP)
Experiment: Amyloid-β peptide release (AβTotal) assay, AlphaLISA on supernatant of HEK-APP cells
Format: cell-based
Conditions: ratio Abtot vs Ab42, HEK-APP cells, 24 h
Description: Amyloid-β Peptide Release (Aβ42 & AβTotal) Assay to Determine IC50 Values.
Compounds are dissolved in and diluted in 100% DMSO and incubated with HEK-APP cells for 24 h at 37° C. in 5% CO2. The supernatant from HEK-APP cells are mixed with antibodies: for Aβ42 detection: AlphaLISA Amyloid-β 1-42 Kit (Perkin Elmer AL203L) Anti-Amyloid β1-42-specific antibody acceptor beads, biotinylated anti-Amyloid-“β1-42” antibody and streptavidin (SA) donor beads diluted in AlphaLISA buffer (to the instructions of the supplier). For Aβ total detection: Custom Anti-Amyloid-βtotal acceptor beads (6E10 acceptor beads), biotinylated anti-Amyloid “β1-42” antibody (Perkin Elmer AL203L) and streptavidin (SA) donor beads diluted in AlphaLISA buffer (to the instructions of the supplier). After addition of supernatant to the antibody mix, the assay is incubated for 4.5 h. Amyloid-β peptide release (Aβ42 & AβTotal) is measured with a Pherastar FS (BMG) multimode reader using the alphascreen module.

In the case of `Cc1ncc2sc(C(=O)N3CCCC3c3ccc(Cl)cc3)nn12` (stereo not shown) [Example 118, [2-(4-Chloro-phenyl)-pyrrolidin-1-yl]-(5-methyl-imidazo[5,1-b][1,3,4]thiadiazol-2-yl)-methanone], the Abtot/Ab42 selectivity ranges was “d (d: 10 fold > selectivity)”.
